Source: publication PMC2377083, “IDN 5390: an oral taxane candidate for protracted treatment schedules” (British Journal of Cancer, 2003)

Settings: s.c. delivery

## CC(=O)O[C@@]1([C@@H]2/C(C)=C(/O)C(=O)C3=C(C)[C@@H](OC(=O)[C@H](O)[C@H](CC(C)C)NC(=O)OC(C)(C)C)C[C@@](O)([C@H]2OC(=O)c2ccccc2)C3(C)C)CO[C@@H]1CCO [IDN 5390, 13-(N-Boc-β-isobutylisoserinyl)-10β-dehydro-C-seco-10-deacetylbaccatin III]
  local vesicant toxicity: no local vesicant toxicity was observed
